# Earlier results, collected in patent publication US7976847B2, “Controlled release CGRP delivery composition for cardiovascular and renal indications” (VasoGenix Pharmaceuticals, Inc., priority 2004, dated 2011).
# Tests used:
# [1] = IV infusion 10 or 20 minutes at 0.8, 3.2, or 16 ng/kg/min
# [2] = 600 ng/min
# [3] = 8 ng/kg/min IV infusion for 8 hours
# [4] = IV dose of 560 ng/min (0.008 μg/kg/min)
substance,measurement,setting,value
Calcitonin gene-related peptide [CGRP],cardiac output,[1],increase in cardiac output
same,systemic vascular resistance,[1],decreased systemic vascular resistance
same,tachycardia,[1],no tachycardia observed
same,"patients in whom infusion was discontinued after 28 hours due to nausea, diarrhea, and/or severe facial flushing",[2]; 48-hour continuous IV infusion,3 out of the 6
same,hemodynamic functions such as left ventricular function,[2]; pulsed therapy,improve hemodynamic functions
same,tolerability,"[2]; pulsed therapy, 2-8 hour infusions for two consecutive days",well tolerated
same,peak plasma levels of CGRP,[4],157 ± 26 pg/mL
same,time in which peak plasma levels are obtained,[4],≤ 60 min
same,steady state plasma level found to produce beneficial hemodynamic responses,corresponds to IV dose of 560 ng/min (0.008 μg/kg/min),157 ± 26 µg/mL
same,duration of IV administration before unwanted side effects set in,intravenous doses giving the effective plasma levels,12 to 24 h
same,effective circulating plasma levels of CGRP,"intravenous infusions, Stage C and D HF patients (Anand et al. 1991, Shekhar et al. 1991)",157 ± 26 pg/mL and 186 ± 127 pg/mL
same,cardiac output,[3],increased cardiac output
same,pulmonary and systemic arterial pressure,[3],decreased pulmonary and systemic arterial pressure
same,time after stopping CGRP infusion until hemodynamic effects were lost,[3],≤ 30 min
same,vascular resistance,[3],decreased vascular resistance
same,renal blood flow and glomerular filtration,[3]; during treatment,increased

# Several values for one entry are separate records, joined by “and”; a condition that tells them apart may be missing. Equal values may be shown once. Read-outs that look alike come from different tables or passages of the source.
